By UniProt entry, the sequences of proteins in these tests, tags left out. Where a name states a change or a piece, a line headed by the entry shows the natural chain unless it says otherwise.
UniProt P41146: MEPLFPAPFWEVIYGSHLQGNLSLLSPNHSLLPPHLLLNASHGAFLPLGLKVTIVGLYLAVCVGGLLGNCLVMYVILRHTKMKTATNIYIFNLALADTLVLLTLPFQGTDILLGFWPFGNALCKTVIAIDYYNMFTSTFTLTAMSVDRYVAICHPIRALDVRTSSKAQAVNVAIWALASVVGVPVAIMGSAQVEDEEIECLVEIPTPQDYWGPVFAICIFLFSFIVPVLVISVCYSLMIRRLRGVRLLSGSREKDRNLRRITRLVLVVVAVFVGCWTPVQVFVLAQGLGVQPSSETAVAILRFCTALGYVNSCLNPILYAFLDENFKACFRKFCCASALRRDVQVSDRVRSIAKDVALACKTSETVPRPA

In patent US7241770B2 (priority 2003, dated 2007):

Target: ORL1 receptor (Homo sapiens, UniProt P41146)
Assay: In vitro ORL1 receptor agonism, cAMP assay

Going from `CNCCCCN1CN(c2ccccc2)C2(CCN(CCC3CCC4CC3C4(C)C)CC2)C1=O` (stereo not shown) [Example 14] to `CNCCCN1CN(c2ccccc2)C2(CCN(CCC3CCC4CC3C4(C)C)CC2)C1=O` (stereo not shown) [Example 13, 8-[2-(6,6-Dimethyl-bicyclo[3.1.1]hept-2-yl)-ethyl]-3-(3-methylamino-propyl)-1-phenyl-1,3,8-triaza-spiro[4.5]decan-4-one], the “In vitro agonism cAMP assay pEC50” value falls from 9.9 to 8.7.

Going from `CN(CCCN1CN(c2ccccc2)C2(CCN(CCC3CCC4CC3C4(C)C)CC2)C1=O)CC1(O)CCNCC1` (stereo not shown) [Example 37, 8-[2-(6,6-Dimethyl-bicyclo[3.1.1]hept-2-yl)-ethyl]-3-{3-[(4-hydroxy-piperidin-4-ylmethyl)-methyl-amino]-propyl}-1-phenyl-1,3,8-triaza-spiro[4.5]decan-4-one] to `CC1(C)C2CCC(CCN3CCC4(CC3)C(=O)NCN4c3ccccc3)C1C2` (stereo not shown) [Example 1, 8-[2-(6,6-Dimethyl-bicyclo[3.1.1]hept-2-yl)-ethyl]-1-phenyl-1,3,8-triaza-spiro[4.5]decan-4-one], the “In vitro agonism cAMP assay pEC50” value falls from 10.6 to 10.2.
